Bioassay records deposited in PubChem BioAssay by several laboratories.
The list is not random: actives were taken first. Their share in the collection is about 2.1%.
SMARCA2 activ – increases SMARCA2 function in MMTV reporter cells; MG213 cells, MMTV-luciferase reporter, dexamethasone, overnight; activation, % at 9.1 µM; 370,000 tested, 1% active; in the data active means activation above about 7.8%;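 further: 0% = vehicle wells and 100% = reference activator wells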
UUG fidelity – modulators of yeast start codon fidelity, primary screen, whole organism, S. cerevisiae, single point, plate reader; activity score, % at 18.7 µM; actives 0.13% (n = 350,000); S. cerevisiae UUG-firefly luciferase reporter, luminescence/redox ratio;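 active = replicate mean at a twofold rise or more, about +100% in these data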;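 also: firefly luciferase made from a UUG start codon reports start codon fidelity; reporter light over untreated wells divided by growth signal over untreated wells; some hits fall short of that in this replicate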
Rev-erbA mod – modulates human Rev-erb alpha binding to DNA; P20393; 370,000 tested, 0.79% active; activity, % at 10 µM; Rev-erbα–FITC-DNA binding, fluorescence polarization, 90 min;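 active means activity above about 14%, limit read from the data; passing the limit was not always enough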;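 further: 0% = DMSO wells with 35 nM protein and 100% = DMSO wells with 750 nM protein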
ERp5 block – inhibitors of human ERp5 | Q15084 | ERp5 insulin aggregation, absorbance 650 nm, 90 min | inhibition, % at 9.99 µM | 350,000 tested, 0.05% active | AID 651711;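 active means mean replicate inhibition above about 25%, with every replicate also reaching it, limit read from the data, passing the limit was not always enough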
PDI turbidity – PDI (human) enzyme inhibition; PDI insulin aggregation turbidity, A650, 90 min; 350,000 tested, 0.052% active; inhibition, % at 10 µM; P07237;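 active means mean inhibition across replicates of 30% or more, whatever share of single replicates reach that level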
INS-1E GSIS act – primary screen for activators of insulin secretion dependent on glucose, INS-1E cells, GLuc reporter luminescence; INS-1E GLuc reporter insulin secretion, 2-3 h; 370,000 tested, 0.61% active; AID 743287; activation, % at 16.6 µM;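 active means lowest replicate activation of at least 40%, so every replicate reaches that level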;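 further: 0% = median of neutral control wells and 100% = median of IBMX positive control wells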
SMARCA2 act conf – SMARCA2 activation, confirmation screen. activation, % at 9.1 µM. 3,500 tested, 30% active. AID 652260. shares compounds with SMARCA2 activ. MG213 cells, MMTV-luciferase with dexamethasone, luminescence, overnight; MG213 cells expressing E1A, Rb sequestered; DMSO wells 0%, reference activator 100%;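 active means activation above its plate's cutoff, the mean activation of tested wells plus 3 SD, cut at about 7.9% in these data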
GAL4-VP16 Luc – counter-screen for SMARCA2 activators: GAL4-VP16 luciferase reporter activation; 3,500 tested, 41% active; activation, % at 9.1 µM; shares compounds with SMARCA2 activ; AID 686939; HEK293 GAL4-VP16 pG5luc reporter, luciferase luminescence; scaled: DMSO wells 0%, SAHA wells 100%;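 active means activation above the solvent-only control well mean plus 3 SD, averaged across control plates, cut at about 5.2% in these data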
* marks the source's active call; other numbers are inactive results; . = no result given.

SMILES,SMARCA2 activ,GAL4-VP16 Luc,INS-1E GSIS act,ERp5 block,UUG fidelity,PDI turbidity,Rev-erbA mod,SMARCA2 act conf
CN(C)c1ccc(/C=C/C(=O)c2ccc3c(c2)OCO3)cc1,8.0*,3,.,3,-2,2,12,1
Cc1ccc(C(=O)N/N=C/c2ccc3c(c2)OCO3)o1,6,.,12,-5,.,-3,-1,.
Cc1ccc(NC(=O)Nc2ccc3c(c2)OCO3)nc1,6,.,4,-2,.,-8,3,.
O=C(/C=C/c1ccccc1)c1ccc2c(c1)OCO2,2,.,-25,5,-12,-2,-2,.
Cc1ccc(NC(=O)/C=C/c2ccc3c(c2)OCO3)nc1,9.3*,6.6*,.,1,.,-2,-5,12*
CC(C)NC(=O)N(C)C[C@H]1Oc2ccc(NC(=O)NC3CCCCC3)cc2C(=O)N([C@H](C)CO)C[C@H]1C,.,.,-3,3,2,.,.,.
Cc1ccc(S(=O)(=O)N(C)C[C@H]2OCCCC[C@H](C)Oc3ccc(N(C)C)cc3C(=O)N([C@@H](C)CO)C[C@@H]2C)cc1,.,.,-17,0,73,.,.,.
COCC(=O)N(C)C[C@H]1Oc2ncc(-c3ccccc3F)cc2C(=O)N([C@@H](C)CO)C[C@H]1C,.,.,13,-6,13,.,.,.
C[C@@H]1CN([C@@H](C)CO)C(=O)c2cc(NC(=O)c3ccncc3)ccc2O[C@@H]1CN(C)C,.,.,7,-2,-15,.,.,.
C[C@@H]1CCCCO[C@@H](CN(C)S(=O)(=O)c2ccc(Cl)cc2)[C@H](C)CN([C@H](C)CO)C(=O)c2cc(NC(=O)C3CCCCC3)ccc2O1,.,.,-4,3,-7,.,.,.
COC(=O)c1sc(-c2ccccc2)cc1NC(=O)C1CC1,8.9*,2,10,-7,.,-2,-8,-4
CCCCNC(=S)NNC(=O)c1csc(C)c1CC,8.3*,2,-6,.,.,-11,1,-2
Cc1nc(NC(=O)/C=C/c2ccc(F)cc2)sc1C(=O)N(C)C,2,.,-4,.,.,5,4,.
Cc1nc(NC(=O)/C=C/c2ccccc2)sc1C(=O)N(C)C,10*,6.2*,13,.,-11,16,-2,3
Cc1cc(=O)oc(C)c1C(=O)NNC(=O)C1(C)CC1Br (stereo not drawn),8.9*,0,.,4,-2,2,5,3

(continued)
SMILES,SMARCA2 activ,GAL4-VP16 Luc,INS-1E GSIS act,ERp5 block,UUG fidelity,PDI turbidity,Rev-erbA mod,SMARCA2 act conf
CN1c2ccc(C3=CCCCC3)cc2[C@H]2[C@H](CCN2S(=O)(=O)c2ccccc2F)[C@@H]1CO,.,.,3,-4,-4,.,.,.
Cc1ccc(-c2ocnc2C(=O)Nc2ccccc2C(=O)N2CCCC2)cc1,-2,.,2,-3,-8,-1,5,.
CNC(=O)c1ncoc1-c1ccc(Cl)cc1,8.1*,0,6,4,.,-1,0,0
Cn1nccc1C(=O)N1CCN(c2ccccc2Cl)CC1,8.0*,1,9,-3,-18,9,3,1
Cc1cccc(N2CCN(C(=O)c3ccnn3C)CC2)c1C,-1,.,15,2,-10,-4,4,.
COc1ccc(S(=O)(=O)N(C)C[C@H]2OCCCC[C@H](C)Oc3ccc(NS(=O)(=O)c4ccc(C)cc4)cc3C(=O)N([C@H](C)CO)C[C@H]2C)cc1,.,.,7,1,-10,.,.,.
Cc1nc2nc(C)c(NS(=O)(=O)c3ccc4c(c3)CCCC4)c(=O)n2[nH]1,8.9*,3,15,3,-1,-5,3,-2
NC(=O)c1cccnc1Nc1cccc([N+](=O)[O-])c1,13*,8.6*,37,1,.,17,0,7.8*
NC(=O)c1cccnc1Nc1cccc(F)c1,0,.,-3,0,.,1,11,.
O=C(C[C@@H]1C[C@H]2c3cc(NC(=O)C4CCOCC4)ccc3O[C@H]2[C@H](CO)O1)NCC1CC1,.,.,3,-1,8,.,.,.
Cn1c2ccccc2c(=O)c2ccc(NCCc3cccs3)cc21,9.0*,14*,8,-6,-12,-2,-29,9.4*
NC(=O)c1ccc(NCCc2cccs2)cc1,6,.,-1,-6,-9,.,-1,.
CCC(C)(C(=O)NC1CCCCC1)N(Cc1ccco1)C(=O)CC1NC(=O)NC1=O (stereo not drawn),8.4*,0,.,.,-4,7,-1,-3
O=C1NC(=O)C(CC(=O)N(Cc2ccco2)C2(C(=O)NC3CCCC3)CCCCC2)N1 (stereo not drawn),-2,.,.,.,2,10,-3,.
Nc1nnc(-c2ccc(Cl)cc2Cl)s1,12*,8.2*,10,1,.,-4,-7,6
COc1ccc2c3c(n(C)c2c1)[C@@H](CO)N(Cc1cccc(F)c1)CC31CN(C)C1,.,.,17,-4,.,.,.,.

One compound at a time, as listed above. Screens in order: SMARCA2 activ	GAL4-VP16 Luc	INS-1E GSIS act	ERp5 block	UUG fidelity	PDI turbidity	Rev-erbA mod	SMARCA2 act conf
`CC(C)NC(=O)N(C)C[C@H]1Oc2ccc(NC(=O)NC3CCCCC3)cc2C(=O)N([C@H](C)CO)C[C@H]1C` as listed: .	.	-3	3	2	.	.	.
`COc1ccc(S(=O)(=O)N(C)C[C@H]2OCCCC[C@H](C)Oc3ccc(NS(=O)(=O)c4ccc(C)cc4)cc3C(=O)N([C@H](C)CO)C[C@H]2C)cc1` as listed: .	.	7	1	-10	.	.	.
`O=C(C[C@@H]1C[C@H]2c3cc(NC(=O)C4CCOCC4)ccc3O[C@H]2[C@H](CO)O1)NCC1CC1` as listed: .	.	3	-1	8	.	.	.
